Measurements from patent US20230017785A1, “COMPANION DIAGNOSTICS FOR COMPLEMENT INHIBITORS” (THE JOHNS HOPKINS UNIVERSITY, priority 2019, published 2023).
Entries after “also recorded” stand apart in the source; their conditions may differ.

Assays:
[1] = Eculizumab treatment of patients with CAPS / thrombotic APS; type: in vivo, human; settings: CAPS patient; acute renal failure, cardiac injury, thrombocytopenia within 2 weeks of renal transplant
[2] = tested on: C5b-9 deposition on PIGA null TF-1 cells; assay: Flow cytometry for C5b-9 deposition; type: cell-based, human; settings: for Inhibition of C5b-9 deposition induced by APS patient sera: APS patient sera on PIGA null TF-1 cells; for Inhibition of C5b-9 deposition induced by CAPS sera: CAPS patient sera (e.g. CAPS5); for Inhibition of C5b-9 deposition induced by patient-derived IgG anti-β2GPI antibody: anti-β2GPI from thrombotic APS patient APS21 added to normal human serum
Description: (§1) Patient derived anti-β2GPI antibodies. Anti-β2GPI antibodies from two patients were affinity purified using a column of Affigel HZ to which purified human β2GPI was coupled (Bio-Rad Laboratories, Hercules, Calif.), as previously described.^43 IgG purity was assessed by reduced SDS-PAGE. Complement activation (C5b-9 deposition and complement dependent cell killing in mHam) induced by patient-derived anti-β2GPI antibodies was tested by adding patient-derived anti-β2GPI antibodies to normal human serum (Cat. NHS, Complement Technology, Inc.).
Flow cytometry for C5b-9 deposition. Flow cytometry was performed to evaluate cell surface deposition of C5b-9 deposition on PIGA null TF1 cells. Cells were seeded in V-bottom 96-well plates (1.2×10^5 cells/well) either in GVB^0.MgEGTA (pH 6.4) buffer for alternative pathway activation or GVB++ (pH 7.4) buffer for classical pathway activation followed by addition of APS patient serum (or patient-derived aPL added to normal human serum). The reaction was incubated for 15 min at 37° C., and stopped by adding FACS buffer/EDTA. Cell pellets were separated by centrifugation at 1900 rpm for 3 minutes at room temperature and then stained with Alexa 488 conjugated anti-C3c antibody (Cat. 4212, Abcam, dilution at 1:100) and […] monoclonal primary antibody (Cat. 66768, Abcam, dilution at 1:100), followed by Alexa 647 conjugated secondary antibody. C5b-9 deposition was measured by a BD FACSCalibur. Ten thousand events were recorded per sample and analyzed using FlowJo software version 10.5.3 (FlowJo Inc). Normal human serum was used as a negative control for flow cytometry assays. We also evaluated the effect of adding anti-C5 mAb and ACH-4471 on C5b-9 deposition.

[3] = literature case reports; cited from earlier work
PIGA null TF-1 cells = assay: Modified Ham (mHam) assay, complement-dependent cell killing; type: cell-based, human; settings: anti-C5 mAb 10 μg, ACH-4471 0.33 μM; for Inhibition of mHam cell killing induced by CAPS sera: CAPS patient sera
Description: as §1
Modified Ham assay. The mHam assay has been validated to assess complement activation in patient serum and was performed as described previously.^42,44 Briefly, PIGA null TF-1 cells were plated in 96-well plates at a density of 6700 cells/well and cultured until confluent. Briefly, PIGA null TF-1 cells were plated in 96-well plates in gelatin veronal buffer with Ca and Mg (GVB^++) (Cat. B102, Complement Technology, Inc.) at a density of 6,700 cells/well. Test serum (20 μL at 1:5 dilution) was added to cells and incubated at 37° C. for 45 minutes with constant shaking. After incubation, cells were again washed with phosphate buffered saline and incubated with the cell proliferation reagent, 4-[3-(4-lodophenyl)-2-(4-nitrophenyl)-2H-5-tetrazolio]-1.3-benzene disulfonate/WST-1 (Roche, Switzerland) at dilution 1:10 for 2 hours at 37° C. Absorbance was measured in a plate reader (ELX808, BioTeK, Winooski, Vt.) at 450 nm with a reference wave length at 630 nm. The colorimetric assay is based on cleavage of the tetrazolium salt, WST-1, by mitochondrial dehydrogenases in viable cells. The percentage of live cells was calculated as the ratio of absorbance of the sample to its heat inactivated control multiplied by 100. The percentage of non-viable cells (100−percentage viable cells) is a measure of complement activation. Based on prior experiments, 20% non-viable cells (cell killing) is established as the threshold for a positive test.^42,44 All assays were performed in triplicate for replication.
As a positive control for the mHam, Shiga toxin^45 (Cat. SML0562, Sigma-Aldrich, St. Louis, Mo.) 10 μg/mL was added to NHS and incubated at 37° C. for 15 minutes, followed by the addition of the cells. Heat-inactivated serum was used an internal negative control for each sample. To confirm complement dependence of cell killing, the mHam was performed after adding an anti-β5 monoclonal antibody (10 μg) (Alexion pharmaceuticals). The assays were also performed with a small molecule factor D inhibitor^46 (0.33 μM) (ACH-4471, Achillion Pharmaceuticals) to evaluate the contribution of the alternative versus classical/lectin pathways.

[4] = listed as anti-β5 monoclonal antibody

B1: eculizumab (antibody, chains of the INN, looked up)
heavy: QVQLVQSGAEVKKPGASVKVSCKASGYIFSNYWIQWVRQAPGQGLEWMGEILPGSGSTEYTENFKDRVTMTRDTSTSTVYMELSSLRSEDTAVYYCARYFFGSSPNWYFDVWGQGTLVTVSSASTKGPSVFPLAPCSRSTSESTAALGCLVKDYFPEPVTVSWNSGALTSGVHTFPAVLQSSGLYSLSSVVTVPSSNFGTQTYTCNVDHKPSNTKVDKTVERKCCVECPPCPAPPVAGPSVFLFPPKPKDTLMISRTPEVTCVVVDVSQEDPEVQFNWYVDGVEVHNAKTKPREEQFNSTYRVVSVLTVLHQDWLNGKEYKCKVSNKGLPSSIEKTISKAKGQPREPQVYTLPPSQEEMTKNQVSLTCLVKGFYPSDIAVEWESNGQPENNYKTTPPVLDSDGSFFLYSRLTVDKSRWQEGNVFSCSVMHEALHNHYTQKSLSLSLG
light: DIQMTQSPSSLSASVGDRVTITCGASENIYGALNWYQQKPGKAPKLLIYGATNLADGVPSRFSGSGSGTDFTLTISSLQPEDFATYYCQNVLNTPLTFGQGTKVEIKRTVAAPSVFIFPPSDEQLKSGTASVVCLLNNFYPREAKVQWKVDNALQSGNSQESVTEQDSKDSTYSLSSTLTLSKADYEKHKVYACEVTHQGLSSPVTKSFNRGEC
For B1, the “Clinical outcome of eculizumab treatment” value [1] was “successfully treated”, the “Inhibition of C5b-9 deposition induced by APS patient sera” value (from here on “Inhibition … by APS patient sera”) [2] was “completely blocked” and the “Inhibition … by APS patient sera” value ([2]; listed as anti-CS antibody) was “blocked”. The “Inhibition … by APS patient sera” value ([2]; listed as anti-β5 antibody) was “inhibited”, the “Inhibition of C5b-9 deposition induced by CAPS sera” value [2] was “blocked” and the “Inhibition of C5b-9 deposition induced by CAPS sera” value ([2]; listed as anti-CS antibody) was “more so”. The “Inhibition of C5b-9 deposition induced by CAPS sera” value [2, 4] was “completely blocked”, the “Inhibition of C5b-9 deposition induced by patient-derived IgG anti-β2GPI antibody” value [2] was “blocked completely” and the “Inhibition of C5b-9 deposition induced by patient-derived IgG anti-β2GPI antibody” value ([2]; listed as anti-β5 monoclonal Ab) was “inhibited”. The “Reported clinical efficacy of eculizumab in CAPS and refractory thrombotic APS” value [3] was “efficacy; also recorded: responded to treatment; also recorded: successful use”, the “Inhibition of cell killing in the mHam induced by APS sera” value (PIGA null TF-1 cells; APS patient sera) was “blocked” and the “Inhibition of mHam cell killing induced by CAPS sera” value (PIGA null TF-1 cells) was “attenuated”. For the same molecule, the “Inhibition of mHam cell killing induced by CAPS sera” value (PIGA null TF-1 cells; listed as anti-CS antibody) was “more so” and the “Inhibition of mHam cell killing induced by CAPS sera” value (PIGA null TF-1 cells; [4]) was “completely blocked”.
